Measured values: publication PMC9059126, “Structure-Based Design of a Novel Class of Autotaxin Inhibitors Based on Endogenous Allosteric Modulators” (Journal of Medicinal Chemistry, 2022)

Target: ATX (Rattus norvegicus, UniProt Q64610)
Test: Choline oxidase-coupled choline-release assay of LPC hydrolysis by ATX
Settings: read-out: %Inhibition at 100 μM

Question: `COc1ccc(S(N)(=O)=O)cc1` [Compound 5] was tested. Which inhibition at 100 µM did it give?
Answer: 8%
